Results from PubChem BioAssay (NCI).
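Values below derive from 48-hour exposures of cells grown in 96-well plates, with endpoints linearly interpolated between the two concentrations bracketing the appropriate inhibition level. The concentration for 50% growth inhibition is given as GI50. TGI is the concentration that stops growth completely.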

Columns and labels:
Test in all cases: NCI tumour cell line growth inhibition, 48 h
[1] = system: NCI-H23 lung
[2] = system: SN12K1 renal
[3] = system: SK-MEL-2 melanoma
[4] = system: NCI-H460 lung
[5] = system: DLD-1 colon
[6] = system: NCI-H522 lung
[7] = system: SF-268 CNS
[8] = system: NCI/ADR-RES ovarian
[9] = system: SK-MEL-28 melanoma
[10] = system: SF-295 CNS
[11] = system: OVCAR-8 ovarian
[12] = system: HOP-18 NSCLC
[13] = system: U251 CNS
[14] = system: SF-539 CNS
[15] = system: OVCAR-4 ovarian
[16] = system: SW-620 colon
[17] = system: UO-31 renal
[18] = system: COLO 205 colon
[19] = system: CAKI-1 renal
[20] = system: RPMI-8226 leukemia
[21] = system: A549 NSCLC
[22] = system: SNB-75 CNS
[23] = system: P388/ADR leukemia
[24] = system: NCI-H322M lung
[25] = system: SNB-78 CNS
[26] = system: DMS 273 small cell lung
[27] = system: CCRF-CEM leukemia
[28] = system: HOP-62 NSCLC
[29] = system: LOX IMVI melanoma
[30] = system: SN12C renal
[31] = system: MCF7 breast
[32] = system: HCC-2998 colon
[33] = system: OVCAR-3 ovarian
[34] = system: K-562 leukemia
[35] = system: SK-OV-3 ovarian
[36] = system: IGROV1 ovarian
[37] = system: KM12 colon
[38] = system: HOP-92 NSCLC
[39] = system: EKVX NSCLC
[40] = system: NCI-H226 lung
[41] = system: UACC-257 melanoma
[42] = system: SK-MEL-5 melanoma
[43] = system: HCT-116 colon
[44] = system: OVCAR-5 ovarian
[45] = system: RXF 393 renal
[46] = system: MOLT-4 leukemia
[47] = system: HCT-15 colon
[48] = system: SNB-19 CNS
[49] = system: MALME-3M melanoma
[50] = system: P388 leukemia
[51] = system: HL-60(TB) leukemia
[52] = system: DMS 114 small cell lung
[53] = system: UACC-62 melanoma
[54] = system: HT29 colon
[55] = system: A498 renal
[56] = system: M19-MEL melanoma
[57] = system: LXFL 529 NSCLC
[58] = system: ACHN renal
[59] = system: TK-10 renal
[60] = system: 786-0 renal
[61] = system: RXF-631 renal
[62] = system: M14 melanoma
[63] = system: XF 498 CNS
[64] = system: KM20L2 colon
[65] = system: MDA-N
[66] = system: MDA-MB-435
[67] = system: DU-145 prostate
[68] = system: HS 578T breast
[69] = system: SR leukemia
[70] = system: MDA-MB-231 breast

CCNC(=O)O[C@@H]1CC[N+]2([O-])CC=C(COC(=O)C(O)(CC)c3ccc(Cl)cc3)C12 (stereo partly specified)
TGI [1]: > 100 µM | TGI [2]: > 100 µM | TGI [3]: > 100 µM | TGI [4]: > 100 µM | TGI [5]: > 100 µM | TGI [6]: > 100 µM | TGI [7]: > 100 µM | TGI [8]: > 100 µM | TGI [9]: > 100 µM | TGI [10]: > 100 µM | TGI [11]: > 100 µM | TGI [12]: > 100 µM | TGI [13]: > 100 µM | TGI [14]: > 100 µM | TGI [15]: > 100 µM | TGI [16]: > 100 µM | TGI [17]: > 100 µM | TGI [18]: > 100 µM | TGI [19]: > 100 µM | TGI [20]: > 100 µM | TGI [21]: > 100 µM | TGI [22]: > 100 µM | TGI [23]: > 100 µM | TGI [24]: > 100 µM | GI50 [25]: > 100 µM | TGI [25]: > 100 µM | TGI [26]: > 100 µM | TGI [27]: > 100 µM | TGI [28]: > 100 µM | TGI [29]: > 100 µM | TGI [30]: > 100 µM | TGI [31]: > 100 µM | TGI [32]: > 100 µM | TGI [33]: > 100 µM | TGI [34]: > 100 µM | TGI [35]: > 100 µM | TGI [36]: > 100 µM | TGI [37]: > 100 µM | TGI [38]: > 100 µM | TGI [39]: > 100 µM | TGI [40]: > 100 µM | TGI [41]: > 100 µM | TGI [42]: > 100 µM | TGI [43]: > 100 µM | TGI [44]: > 100 µM | GI50 [45]: > 100 µM | TGI [45]: > 100 µM | TGI [46]: > 100 µM | TGI [47]: > 100 µM | TGI [48]: > 100 µM | TGI [49]: > 100 µM | TGI [50]: > 100 µM | TGI [51]: > 100 µM | TGI [52]: > 100 µM | TGI [53]: > 100 µM | TGI [54]: > 100 µM | TGI [55]: > 100 µM | TGI [56]: > 100 µM

C[C@H](N[N+](=O)[O-])C(N)=O
GI50 [1]: > 100 µM | TGI [1]: > 100 µM | GI50 [3]: > 100 µM | TGI [3]: > 100 µM | GI50 [4]: > 100 µM | TGI [4]: > 100 µM | GI50 [5]: > 100 µM | TGI [5]: > 100 µM | GI50 [7]: > 100 µM | TGI [7]: > 100 µM | GI50 [9]: > 100 µM | TGI [9]: > 100 µM | GI50 [10]: > 100 µM | TGI [10]: > 100 µM | GI50 [11]: > 100 µM | TGI [11]: > 100 µM | GI50 [13]: > 100 µM | TGI [13]: > 100 µM | GI50 [14]: > 100 µM | TGI [14]: > 100 µM | GI50 [57]: > 100 µM | TGI [57]: > 100 µM | GI50 [15]: > 100 µM | TGI [15]: > 100 µM | GI50 [16]: > 100 µM | TGI [16]: > 100 µM | GI50 [18]: > 100 µM | TGI [18]: > 100 µM | GI50 [19]: > 100 µM | TGI [19]: > 100 µM | GI50 [20]: > 100 µM | TGI [20]: > 100 µM | GI50 [21]: > 100 µM | TGI [21]: > 100 µM | GI50 [22]: > 100 µM | TGI [22]: > 100 µM | GI50 [24]: > 100 µM | TGI [24]: > 100 µM | GI50 [25]: > 100 µM | TGI [25]: > 100 µM | GI50 [26]: > 100 µM | TGI [26]: > 100 µM | GI50 [27]: > 100 µM | TGI [27]: > 100 µM | GI50 [28]: > 100 µM | TGI [28]: > 100 µM | GI50 [58]: > 100 µM | TGI [58]: > 100 µM | GI50 [29]: > 100 µM | TGI [29]: > 100 µM | GI50 [30]: > 100 µM | TGI [30]: > 100 µM | GI50 [32]: > 100 µM | TGI [32]: > 100 µM | GI50 [33]: > 100 µM | TGI [33]: > 100 µM | GI50 [34]: > 100 µM | TGI [34]: > 100 µM | GI50 [35]: > 100 µM | TGI [35]: > 100 µM | GI50 [36]: > 100 µM | TGI [36]: > 100 µM | GI50 [37]: > 100 µM | TGI [37]: > 100 µM | GI50 [39]: > 100 µM | TGI [39]: > 100 µM | GI50 [59]: > 100 µM | TGI [59]: > 100 µM | GI50 [41]: > 100 µM | TGI [41]: > 100 µM | GI50 [42]: > 100 µM | TGI [42]: > 100 µM | GI50 [60]: > 100 µM | TGI [60]: > 100 µM | GI50 [43]: > 100 µM | TGI [43]: > 100 µM | GI50 [61]: > 100 µM | TGI [61]: > 100 µM | GI50 [44]: > 100 µM | TGI [44]: > 100 µM | GI50 [45]: > 100 µM | TGI [45]: > 100 µM | GI50 [46]: > 100 µM | TGI [46]: > 100 µM | GI50 [47]: > 100 µM | TGI [47]: > 100 µM | GI50 [62]: > 100 µM | TGI [62]: > 100 µM | GI50 [48]: > 100 µM | TGI [48]: > 100 µM | GI50 [63]: > 100 µM | TGI [63]: > 100 µM | GI50 [49]: > 100 µM | TGI [49]: > 100 µM | GI50 [52]: > 100 µM | TGI [52]: > 100 µM | GI50 [53]: > 100 µM | TGI [53]: > 100 µM | GI50 [54]: > 100 µM | TGI [54]: > 100 µM | GI50 [55]: > 100 µM | TGI [55]: > 100 µM | GI50 [64]: > 100 µM | TGI [64]: > 100 µM | GI50 [56]: > 100 µM | TGI [56]: > 100 µM

CCC1(C)N(C)C(NC#N)=NP1(=O)O (stereo unspecified)
TGI [1]: > 100 µM | TGI [4]: > 100 µM | TGI [6]: > 100 µM | TGI [7]: > 100 µM | TGI [8]: > 100 µM | TGI [9]: > 100 µM | TGI [10]: > 100 µM | TGI [11]: > 100 µM | TGI [13]: > 100 µM | TGI [14]: > 100 µM | TGI [65]: > 100 µM | TGI [66]: > 100 µM | TGI [16]: > 100 µM | TGI [17]: > 100 µM | TGI [18]: > 100 µM | TGI [19]: > 100 µM | TGI [20]: > 100 µM | TGI [21]: > 100 µM | TGI [22]: > 100 µM | TGI [24]: > 100 µM | TGI [67]: > 100 µM | TGI [27]: > 100 µM | TGI [28]: > 100 µM | TGI [58]: > 100 µM | TGI [29]: > 100 µM | TGI [30]: > 100 µM | TGI [31]: > 100 µM | TGI [32]: > 100 µM | TGI [68]: > 100 µM | TGI [33]: > 100 µM | TGI [34]: > 100 µM | TGI [36]: > 100 µM | TGI [37]: > 100 µM | TGI [69]: > 100 µM | TGI [39]: > 100 µM | TGI [59]: > 100 µM | TGI [40]: > 100 µM | TGI [41]: > 100 µM | TGI [42]: > 100 µM | TGI [60]: > 100 µM | TGI [43]: > 100 µM | TGI [44]: > 100 µM | TGI [45]: > 100 µM | TGI [46]: > 100 µM | TGI [47]: > 100 µM | TGI [62]: > 100 µM | TGI [48]: > 100 µM | TGI [49]: > 100 µM | TGI [70]: > 100 µM | TGI [51]: > 100 µM | TGI [53]: > 100 µM | TGI [54]: > 100 µM
